Read-outs that look alike come from different tables or passages of the source.
Details: rat, in vivo, iv

For `C#CCC(Cc1cnc2nc(N)nc(N)c2n1)c1ccc(C(=O)N[C@@H](CCC(=O)O)C(=O)O)cc1` (stereo partly drawn) [10-propargyl-10-deazaaminopterin], the “Survivors After 32 days” value (50 mg/kg) was 5/5, the body weight changes (50 mg/kg) was “no apparent changes in body weight were observed” and the “Survivors After 32 days” value (100 mg/kg) was 4/5. The “Survivors After 32 days” value (150 mg/kg) was 2/5, the rats died (150 mg/kg) was “three out of the five rats died” and the “Survivors After 32 days” value (200 mg/kg) was 0/5. The rats died (200 mg/kg) was “all five rats died”, the “Survivors After 32 days” value (300 mg/kg) was 0/5 and the rats died (300 mg/kg) was “all five rats also died”.

— patent US6323205A (priority 2000, dated 2001)
